Results as given in ChEMBL document CHEMBL6092185, “Discovery of glycosidated glycyrrhetinic acid derivatives: Natural product-based soluble epoxide hydrolase inhibitors” (Eur J Med Chem, 2024).
Calls of active or inactive are those of the source. The rule behind the calls is not given here.

What was measured:
Type in all cases: functional, organism-based
Mus musculus [1] = test: Anti-inflammatory activity in CD-1 mouse model of acute pancreatitis assessed as increase in ratio of 14,15-EET to DHET level in plasma at 10 mg/kg, ip administered 0.5 to 2.5 hrs post-cerulein administration measured after 6 hrs post-cerulein administration by UPLC-MS/MS analysis; details: time 0.5-5.5 hrs
Mus musculus [2] = test: Anti-inflammatory activity in CD-1 mouse model of acute pancreatitis assessed as decrease in cerulein-induced inflammation at 10 mg/kg, ip administered 0.5 to 2.5 hrs post-cerulein administration measured after 6 hrs post-cerulein administration by H and E staining based analysis; details: time 0.5-5.5 hrs
Mus musculus [3] = test: Anti-inflammatory activity in CD-1 mouse model of acute pancreatitis assessed as decrease in total histopathological score at 10 mg/kg, ip administered 0.5 to 2.5 hrs post-cerulein administration measured after 6 hrs post-cerulein administration by H and E staining based analysis; details: time 0.5-5.5 hrs
Mus musculus [4] = test: Anti-inflammatory activity in CD-1 mouse model of acute pancreatitis assessed as increase in ratio of 11,12-EET to DHET level in plasma at 10 mg/kg, ip administered 0.5 to 2.5 hrs post-cerulein administration measured after 6 hrs post-cerulein administration by UPLC-MS/MS analysis; details: time 0.5-5.5 hrs
Mus musculus [5] = test: Anti-inflammatory activity in CD-1 mouse model of acute pancreatitis assessed as decrease in cerulein-induced parenchymal atrophy at 10 mg/kg, ip administered 0.5 to 2.5 hrs post-cerulein administration measured after 6 hrs post-cerulein administration by H and E staining based analysis; details: time 0.5-5.5 hrs
Mus musculus [6] = test: Anti-inflammatory activity in CD-1 mouse model of acute pancreatitis assessed as decrease in cerulein-induced edema at 10 mg/kg, ip administered 0.5 to 2.5 hrs post-cerulein administration measured after 6 hrs post-cerulein administration by H and E staining based analysis; details: time 0.5-5.5 hrs
Mus musculus [7] = test: Anti-inflammatory activity in CD-1 mouse model of acute pancreatitis assessed as increase in ratio of 14,15-EET to DHET level in pancreas at 10 to 20 mg/kg, ip administered 0.5 to 2.5 hrs post-cerulein administration measured after 6 hrs post-cerulein administration by UPLC-MS/MS analysis; details: dose 10-20 mg/kg, time 0.5-5.5 hrs
Mus musculus [8] = test: Anti-inflammatory activity in CD-1 mouse model of acute pancreatitis assessed as increase in ratio of 8,9-EET to DHET level in plasma at 10 mg/kg, ip administered 0.5 to 2.5 hrs post-cerulein administration measured after 6 hrs post-cerulein administration by UPLC-MS/MS analysis; details: time 0.5-5.5 hrs
Mus musculus [9] = test: Anti-inflammatory activity in CD-1 mouse model of acute pancreatitis assessed as increase in ratio of 8,9-EET to DHET level in pancreas at 10 mg/kg, ip administered 0.5 to 2.5 hrs post-cerulein administration measured after 6 hrs post-cerulein administration by UPLC-MS/MS analysis; details: time 0.5-5.5 hrs
Mus musculus [10] = test: Anti-inflammatory activity in CD-1 mouse model of acute pancreatitis assessed as decrease in plasma TNF-alpha level at 10 mg/kg, ip administered 0.5 to 2.5 hrs post-cerulein administration measured after 6 hrs post-cerulein administration by ELISA; details: time 0.5-5.5 hrs
Mus musculus [11] = test: Anti-inflammatory activity in CD-1 mouse model of acute pancreatitis assessed as increase in ratio of 11,12-EET to DHET level in pancreas at 10 to 20 mg/kg, ip administered 0.5 to 2.5 hrs post-cerulein administration measured after 6 hrs post-cerulein administration by UPLC-MS/MS analysis; details: dose 10-20 mg/kg, time 0.5-5.5 hrs
Mus musculus [12] = test: Anti-inflammatory activity in CD-1 mouse model of acute pancreatitis assessed as decrease in plasma IL-6 level at 10 mg/kg, ip administered 0.5 to 2.5 hrs post-cerulein administration measured after 6 hrs post-cerulein administration by ELISA; details: time 0.5-5.5 hrs
Mus musculus [13] = test: Analgesic activity in BALB/c mouse nodel of acetic acid-induced writhing at 20 mg/kg, IG measured for 30 mins

| SMILES | Activity (Mus musculus [1]) | Activity (Mus musculus [2]) | Activity (Mus musculus [3]) | Activity (Mus musculus [4]) | Activity (Mus musculus [5]) | Activity (Mus musculus [6]) | Activity (Mus musculus [7]) | Activity (Mus musculus [8]) | Activity (Mus musculus [9]) | Activity (Mus musculus [10]) | Activity (Mus musculus [11]) | Activity (Mus musculus [12]) | Activity (Mus musculus [13]) |
| --- | --- | --- | --- | --- | --- | --- | --- | --- | --- | --- | --- | --- | --- |
| CC1(C)[C@@H](O[C@H]2O[C@H](CO)[C@@H](O)[C@H](O)[C@@H]2O)CC[C@]2(C)[C@H]3C(=O)C=C4[C@H]5C[C@@](C)(CNC(=O)NCC6CCOCC6)CC[C@]5(C)CC[C@@]4(C)[C@]3(C)CC[C@@H]12 | Active | Active | Active | Active | Active | Active | Active | Active | Active | Active | Active | Active | Active; Exhibited Most Remarkable Effect; Outperformed Both Celecoxib And Ec5026 |
| CC1(C)[C@@H](O[C@H]2OC[C@@H](O)[C@@H](O)[C@@H]2O)CC[C@]2(C)[C@H]3C(=O)C=C4[C@H]5C[C@@](C)(CNC(=O)NCC6CCOCC6)CC[C@]5(C)CC[C@@]4(C)[C@]3(C)CC[C@@H]12 |  |  |  |  |  |  |  |  |  |  |  |  | Active; Outperformed Both Celecoxib And Ec5026 |
| CC1(C)[C@@H](O[C@@H]2O[C@H](CO)[C@@H](O)[C@H](O)[C@H]2O)CC[C@]2(C)[C@H]3C(=O)C=C4[C@H]5C[C@@](C)(CNC(=O)NCC6CCOCC6)CC[C@]5(C)CC[C@@]4(C)[C@]3(C)CC[C@@H]12 |  |  |  |  |  |  |  |  |  |  |  |  | Active; Outperformed Both Celecoxib And Ec5026 |
